Chains of the proteins cited; added tags and fusions are not shown.
UniProt P41594, whole entry, looked up: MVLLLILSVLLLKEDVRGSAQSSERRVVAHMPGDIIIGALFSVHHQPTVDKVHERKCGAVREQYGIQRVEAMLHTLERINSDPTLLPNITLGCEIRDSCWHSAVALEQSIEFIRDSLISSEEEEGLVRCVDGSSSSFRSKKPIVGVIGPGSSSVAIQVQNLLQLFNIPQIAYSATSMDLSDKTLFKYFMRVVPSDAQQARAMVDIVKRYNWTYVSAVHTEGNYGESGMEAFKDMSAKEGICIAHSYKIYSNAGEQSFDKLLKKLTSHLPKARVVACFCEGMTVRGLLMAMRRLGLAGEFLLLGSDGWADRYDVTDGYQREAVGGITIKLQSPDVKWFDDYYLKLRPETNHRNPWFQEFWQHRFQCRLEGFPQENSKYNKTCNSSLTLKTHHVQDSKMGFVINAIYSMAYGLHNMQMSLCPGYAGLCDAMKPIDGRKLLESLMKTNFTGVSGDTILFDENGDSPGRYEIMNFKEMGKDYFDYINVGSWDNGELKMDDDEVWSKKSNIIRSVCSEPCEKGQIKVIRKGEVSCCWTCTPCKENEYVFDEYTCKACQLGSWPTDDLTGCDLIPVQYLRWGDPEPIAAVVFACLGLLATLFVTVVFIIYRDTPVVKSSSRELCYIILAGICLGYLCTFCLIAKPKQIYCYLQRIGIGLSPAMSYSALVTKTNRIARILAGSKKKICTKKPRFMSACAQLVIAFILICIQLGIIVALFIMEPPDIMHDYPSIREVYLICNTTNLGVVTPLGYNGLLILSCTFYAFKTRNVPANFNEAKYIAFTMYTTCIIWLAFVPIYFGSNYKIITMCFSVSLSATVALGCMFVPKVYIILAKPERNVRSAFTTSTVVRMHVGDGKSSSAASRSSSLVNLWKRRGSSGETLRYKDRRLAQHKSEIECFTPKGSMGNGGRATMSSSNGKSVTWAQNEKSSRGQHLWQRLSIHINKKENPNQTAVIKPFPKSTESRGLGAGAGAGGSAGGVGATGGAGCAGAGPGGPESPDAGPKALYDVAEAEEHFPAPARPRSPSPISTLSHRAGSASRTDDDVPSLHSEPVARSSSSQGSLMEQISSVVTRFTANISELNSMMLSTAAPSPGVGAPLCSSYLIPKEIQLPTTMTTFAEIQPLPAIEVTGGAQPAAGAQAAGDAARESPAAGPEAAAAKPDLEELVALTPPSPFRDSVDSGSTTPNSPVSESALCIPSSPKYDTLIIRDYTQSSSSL

In ChEMBL document CHEMBL3399974, “Discovery and SAR of novel series of imidazopyrimidinones and dihydroimidazopyrimidinones as positive allosteric modulators of the metabotropic glutamate receptor 5 (mGlu5)” (Bioorg Med Chem Lett, 2015):

Tests used:
HEK293 = test: Selectivity ratio of IC50 for mGluR3 (unknown origin) to EC50 for rat mGluR5 expressed in HEK293 cells; format: cell-based
[1] = target: Metabotropic glutamate receptor 5 (Homo sapiens) (UniProt P41594); test: Agonist activity at mGluR5 (unknown origin) assessed as potentiation of glutamate-induced response at 10 uM relative to glutamate

Compound | Ratio IC50/EC50 (HEK293) | fold change (FC) [1]
O=C1N(c2ccc(F)cc2)CCc2nc(COc3ccccc3)cn21 | 2 | 12.5
O=c1n(-c2ccc(F)cc2)ccc2nc(COc3ccccc3)cn12 | 2 | –
